Experimental data as given in publication PMC4657098, “A Review of the Updated Pharmacophore for the Alpha 5 GABA(A) Benzodiazepine Receptor Model” (International Journal of Medicinal Chemistry, 2015).

The chains behind the UniProt entries cited, without tags or fusion partners. Residues count along the entry.
UniProt P48169, 36-554 limits assumed: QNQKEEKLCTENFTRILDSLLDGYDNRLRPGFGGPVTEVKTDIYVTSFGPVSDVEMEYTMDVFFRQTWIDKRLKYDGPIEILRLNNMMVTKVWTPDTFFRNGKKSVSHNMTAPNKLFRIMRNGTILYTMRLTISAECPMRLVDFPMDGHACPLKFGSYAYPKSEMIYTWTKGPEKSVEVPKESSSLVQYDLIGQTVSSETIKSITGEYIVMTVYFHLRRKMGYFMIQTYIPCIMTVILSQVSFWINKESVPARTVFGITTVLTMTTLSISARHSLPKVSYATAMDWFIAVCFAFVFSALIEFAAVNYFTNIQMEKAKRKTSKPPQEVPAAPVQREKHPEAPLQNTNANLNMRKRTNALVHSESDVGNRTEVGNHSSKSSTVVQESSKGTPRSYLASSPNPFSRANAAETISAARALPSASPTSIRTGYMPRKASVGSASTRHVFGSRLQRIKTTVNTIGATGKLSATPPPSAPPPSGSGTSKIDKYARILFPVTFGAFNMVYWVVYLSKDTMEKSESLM

Assays:
α1β3γ2 GABAA/BzR = α1β3γ2 GABAA/BzR (Homo sapiens, UniProt P14867+P18507); test: Competition binding to HEK cell membranes, α1β3γ2; conditions: read-out: Ki α1
α2β3γ2 GABAA/BzR = α2β3γ2 GABAA/BzR (Homo sapiens, UniProt P18507+P47869); test: Competition binding to HEK cell membranes, α2β3γ2; conditions: read-out: Ki α2
α5β3γ2 GABAA/BzR = α5β3γ2 GABAA/BzR (Homo sapiens, UniProt P18507+P31644); test: Competition binding to HEK cell membranes, α5β3γ2; conditions: read-out: Ki α5
α3β3γ2 GABAA/BzR = α3β3γ2 GABAA/BzR (Homo sapiens, UniProt P18507+P34903); test: Competition binding to HEK cell membranes, α3β3γ2; conditions: read-out: Ki α3
α6β3γ2 GABAA/BzR = α6β3γ2 GABAA/BzR (Homo sapiens, UniProt P18507+Q16445); test: Competition binding to HEK cell membranes, α6β3γ2; conditions: read-out: Ki α6
α4β3γ2 GABAA/BzR = α4β3γ2 GABAA/BzR (Homo sapiens, UniProt P18507+P48169); conditions: read-out: Ki α4

Row | Structure (SMILES) | Ki (α1β3γ2 GABAA/BzR) | Ki (α2β3γ2 GABAA/BzR) | Ki (α5β3γ2 GABAA/BzR) | Ki (α3β3γ2 GABAA/BzR) | Ki (α6β3γ2 GABAA/BzR) | Ki (α4β3γ2 GABAA/BzR)
1 | C#Cc1ccc2c(c1)C(c1ccccc1Cl)=NCC(=O)N2 | 1.22 nM | 1.19 nM | 2.9 nM | – | – | –
2 | C[C@@H]1N=C(c2ccccc2F)c2cc(Br)ccc2NC1=O | 0.774 nM | 0.172 nM | 0.11 nM | 0.383 nM | – | –
3 | CCOC(=O)c1ncn2c1CN=C(c1ccccc1)c1cc(Br)ccc1-2 | 49 nM | 24 nM | 14 nM | 31 nM | 2040 nM | 1040 nM
4 | CCOC(=O)c1ncn2c1CN=C(c1ccccc1)c1cc(CC)ccc1-2 | 1 nM | – | – | – | – | –
5 | CCOC(=O)c1ncn2c1CN(C)C(=O)c1cc(Br)ccc1-2 | 26 nM | – | 0.7 nM | – | – | –
6 | CC=Cc1ccc2c(c1)C(=O)N(C)Cc1c(C(=O)OCC)ncn1-2 (single isomer, unassigned) [XHE-II-073B] | 11 nM | 17 nM | 2.1 nM | 12 nM | 269 nM | 33 nM
7 | C#Cc1ccc2c(c1)C(c1ccccc1)=NCc1nnc(C)n1-2 | – | – | 5.29 nM | – | – | –
8 | C#Cc1ccc2c(c1)C(c1ccccc1Cl)=NCc1nnc(C)n1-2 | – | – | – | – | 5000 nM | –
9 | C#Cc1ccc2c(c1)C(c1ccccc1)=NCC(=O)N2C | – | – | – | – | 3000 nM | 2000 nM
10 | Fc1ccccc1C1=NCc2c(-c3cnco3)ncn2-c2ccc(Br)cc21 | 11.1 nM | 4.87 nM | 0.24 nM | 13.8 nM | – | –
11 | CCOC(=O)c1ncc2[nH]c3ccc(O)cc3c2c1COC | 2 nM | 5.4 nM | – | – | 3000 nM | –
12 | CC=Cc1ccc2c(c1)C(=O)N(C)Cc1c(C(=O)OCC)ncn1-2 (single isomer, unassigned) [XHE-II-073A] | 5.9 nM | 11 nM | 1.18 nM | 10 nM | 140 nM | 15 nM
13 | CCOC(=O)c1ncn2c1CN(C)C(=O)c1cc(-c3ccco3)ccc1-2 | 1.1 nM | 5.3 nM | 0.6 nM | 5.3 nM | 15 nM | 2.8 nM
14 | CC(C)(C)OC(=O)c1cc2c(cn1)[nH]c1ccc(I)cc12 | 2.72 nM | 22.2 nM | 562 nM | 23.1 nM | 122 nM | –
15 | C#Cc1ccc2c(c1)C(=O)N(C)Cc1c(CCl)ncn1-2 | 620 nM | 286 nM | 7.05 nM | 3640 nM | – | –
16 | CCOC(=O)c1ncn2c1C(C)N=C(c1ccccc1F)c1cc(Br)ccc1-2 (centres unmarked) | 1710 nM | 17.5 nM | 1520 nM | 1220 nM | – | –
17 | C#Cc1ccc2c(c1)C(=O)N(C)Cc1c(C(=O)OCCOCCOC(=O)c3ncn4c3CN(C)C(=O)c3cc(C#C)ccc3-4)ncn1-2 | 828 nM | 690 nM | 13.9 nM | – | – | –
18 | CCOC(=O)c1ncn2c1CN(C)C(=O)c1cc(C#N)ccc1-2 | – | – | – | – | 1000 nM | –
19 | CC#Cc1ccc2c(c1)C(=O)N(C)Cc1c(C(=O)OCC)ncn1-2 | – | – | – | – | 100 nM | –
20 | CN1C(=O)CN=C(c2ccccc2)c2cc(Br)ccc21 | – | – | – | – | 3000 nM | –
21 | O=c1c2c[nH]c3cc(Br)ccc3c-2nn1-c1ccccc1 [QH-II-077] | 0.06 nM | 0.08 nM | – | 0.05 nM | 4 nM | –
22 | C#Cc1ccc2c(c1)C(c1ccccc1)=NCC(=O)N2 | 66 nM | 41 nM | 9 nM | 43 nM | 3000 nM | 3000 nM
23 | C#Cc1ccc2c(c1)C(c1ccccc1F)=NCc1c(C(=O)N3CCN(C(=O)c4ncn5c4CN=C(c4ccccc4F)c4cc(C#C)ccc4-5)CC3)ncn1-2 | 296 nM | 15 nM | 103 nM | 10.8 nM | – | –
24 | CC(C)(C)OC(=O)c1cc2c(cn1)[nH]c1ccccc12 [BCCt] | 1.09 nM | 5.44 nM | 69.8 nM | 12.3 nM | 21.2 nM | –
25 | CC(C)(C)OC(=O)c1ncn2c1CN=C(c1ccccc1)c1cc(Br)ccc1-2 | 14 nM | 8.7 nM | 10 nM | 18 nM | 2000 nM | 1000 nM
